Ab-91 heavy chain CDR variants: yeast mating affinities

Data: MIT Lincoln Laboratory AlphaSeq set, Engelhart et al. 2022, doi:10.1038/s41597-022-01779-4, as distributed in FLAb.

Binding partner: SARS-CoV-2 spike HR2 peptide, sequence PDVDLGDISGINAS.

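The parent was found by panning a naive human phage display library on the peptide. AAYL51 was designed without a model: most single CDR substitutions and a random sample of double and triple ones. In AlphaSeq, yeast of one mating type display the scFv and yeast of the other type display the target. Pairs that bind mate more often; barcode pairs of the diploids are counted by sequencing. Scores were corrected for input abundance and mapped to Kd with protein pairs of known affinity run in the same pool. There are three technical replicates.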

Ab-91 is the parent antibody, in scFv form: VL, then a (GGGGS)3 linker, then VH. The light chain is unchanged in all variants.
VL: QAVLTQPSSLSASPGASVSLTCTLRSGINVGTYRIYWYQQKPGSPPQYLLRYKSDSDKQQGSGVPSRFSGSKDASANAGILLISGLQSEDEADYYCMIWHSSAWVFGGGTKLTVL
VH: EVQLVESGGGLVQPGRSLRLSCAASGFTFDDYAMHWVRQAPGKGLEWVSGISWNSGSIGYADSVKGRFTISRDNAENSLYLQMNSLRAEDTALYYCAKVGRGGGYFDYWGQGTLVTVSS

Substitutions are numbered in sequence along the VH above, starting at 1 (not Kabat). The read-out is the apparent dissociation constant on a log10 scale (nM): the lower, the stronger. The mean shown is taken over the replicates in which the pair was detected. "nd" marks a missing value. The strain was present, yet no cells mated with the target were sequenced in any replicate, which points to weak or no binding. Three control strains display no target. For library AAYL51, 21% of the pairings with them gave a signal, with a median of 4.54 and one signal in twenty below 3.26, so weak values seen in few replicates may be background.

changes	log10 Kd (nM), mean	detected
G56T+Y60T+D62N	3.97	2 of 3
T28A+S52Y+G100V	4.46	2 of 3
M34K+S52I	4.18	1 of 3
S55F+K65M	4.50	3 of 3
F27Q+R101I+G104C	nd	0 of 3
F27A+D30S+S57D	3.13	2 of 3
M34R+Y60L+G100N	4.27	1 of 3
G50Y+S52K+S63H	nd	0 of 3
A33W+Y105V+D107F	nd	0 of 3
Y32R+A33G+Y108P	4.58	3 of 3
K65I+D107P	4.64	2 of 3
G26F+F27S+N54K	5.37	1 of 3
F29H+I51D	3.71	2 of 3
I58V+A61N+D107I	3.40	2 of 3
G56M+S57N+Y108A	2.23	3 of 3
G26P+G50W+S55D	nd	0 of 3
D31Q+R101G+F106N	3.95	3 of 3
Y32D+I51W+G102P	3.88	1 of 3
V99E+Y108L	-0.15	3 of 3
T28K+I51D+S55V	nd	0 of 3
D31T+V64I	2.19	3 of 3
T28I+G56E+Y105M	2.51	3 of 3
T28F+W53T+K65T	2.22	3 of 3
S57D+G59E+K65T	5.86	2 of 3
A33R+W53V+A61T	nd	0 of 3
G104L+F106N	nd	0 of 3
S55H+S63K+V99R	4.20	2 of 3
H35I+G50S+W53E	4.76	3 of 3
G50C+K65L+D107H	4.64	2 of 3
S55T+Y108K	4.52	2 of 3
S57G+R101P+F106S	nd	0 of 3
S52E+S57H+G59T	nd	0 of 3
T28M+D31K+Y60H	1.77	3 of 3
S52H+F106N	5.02	2 of 3
M34T+I51T+G103F	nd	0 of 3
G56Y+D62P+K65S	4.34	3 of 3
D31L+G59M+G100C	1.59	1 of 3
H35R+W53I	4.83	1 of 3
F27P+I51Q+G56E	5.32	3 of 3
D62K+S63A+G102D	5.24	3 of 3
G59R+R101T+F106Q	nd	0 of 3
H35T+G56D+G102L	nd	0 of 3
S52H+G56S+G102S	4.53	1 of 3
T28A+S55E+G104N	nd	0 of 3
V99G+G104K+F106K	1.75	3 of 3
G26S+K65D+D107W	nd	0 of 3
H35W+S57T+I58N	4.40	1 of 3
Y60N+V64S+Y108E	nd	0 of 3
H35I+R101F+G104N	4.50	1 of 3
N54L+S57N+G59N	4.33	3 of 3
Y60P+V64G+Y105F	5.11	3 of 3
F27Y+I58H	nd	0 of 3
G56W+A61Y+G102M	3.98	1 of 3
M34A+Y105H+F106M	nd	0 of 3
T28N+Y32H+F106W	2.57	3 of 3
G26H+V64T+K65S	4.19	1 of 3
V99A+Y105R	4.74	1 of 3
S57D+S63P+K65D	0.69	3 of 3
F27V+A33H+Y60C	nd	0 of 3
S55T+S57H+G104W	nd	0 of 3
H35D+N54F	nd	0 of 3
I51S+G104S+D107W	nd	0 of 3
A33D+Y60D+A61E	4.67	2 of 3
F27G+D31K+K65W	nd	0 of 3
T28K+D30E+Y32Q	nd	0 of 3
G56V+S57K+Y60R	nd	0 of 3
S52Y+S55E+G100L	nd	0 of 3
A61W+K65F+G103W	nd	0 of 3
G50R+W53L+N54G	4.69	2 of 3
F29D+V99M+R101H	4.53	2 of 3
G56W+V99A+G100Y	4.43	1 of 3

Top 10 of the variants detected in all replicates, tightest first:

changes,"log10 Kd (nM), mean",detected
V99E+Y108L,-0.15,3 of 3
S57D+S63P+K65D,0.69,3 of 3
V99G+G104K+F106K,1.75,3 of 3
T28M+D31K+Y60H,1.77,3 of 3
D31T+V64I,2.19,3 of 3
T28F+W53T+K65T,2.22,3 of 3
G56M+S57N+Y108A,2.23,3 of 3
T28I+G56E+Y105M,2.51,3 of 3
T28N+Y32H+F106W,2.57,3 of 3
D31Q+R101G+F106N,3.95,3 of 3

In this assay the parent's reference entry averaged 1.86; its copy inside this library read 0.88.